For the assay, the target named is DA uptake (Rattus norvegicus, UniProt P23977). In words: Inhibition of dopamine reuptake into rat brain synaptosomes.

The chains behind the UniProt entries cited, without tags or fusion partners.
UniProt P23977, whole entry: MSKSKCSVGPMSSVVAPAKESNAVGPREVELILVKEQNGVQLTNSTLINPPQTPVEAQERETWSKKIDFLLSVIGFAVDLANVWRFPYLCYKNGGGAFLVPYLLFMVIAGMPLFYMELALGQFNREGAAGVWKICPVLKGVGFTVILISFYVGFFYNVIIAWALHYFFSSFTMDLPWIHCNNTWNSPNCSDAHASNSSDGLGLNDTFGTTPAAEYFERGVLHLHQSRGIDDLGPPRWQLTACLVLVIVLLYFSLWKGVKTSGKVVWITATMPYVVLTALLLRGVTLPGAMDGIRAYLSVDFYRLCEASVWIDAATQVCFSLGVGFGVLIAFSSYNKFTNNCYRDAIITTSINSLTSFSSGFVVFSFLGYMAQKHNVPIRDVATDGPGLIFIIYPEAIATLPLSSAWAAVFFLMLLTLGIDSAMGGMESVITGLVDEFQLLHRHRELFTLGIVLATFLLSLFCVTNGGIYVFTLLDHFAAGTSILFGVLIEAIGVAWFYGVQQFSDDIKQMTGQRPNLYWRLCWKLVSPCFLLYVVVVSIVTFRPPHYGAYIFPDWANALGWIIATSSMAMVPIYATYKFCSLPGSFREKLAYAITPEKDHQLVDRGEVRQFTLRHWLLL

Usually IC50 stands for the concentration needed to halve the response being measured. A high value points to lower potency. Take `CN(C)CCCC1(c2ccc(F)cc2)OCc2cc(C#N)ccc21` (racemic) [Racemic Citalopram, (±)-1-(3-dimethylaminopropyl)-1-(4-fluorophenyl)-1,3-dihydroisobenzofuran-5-carbonitrile, reference compound]: the IC50 was determined as 13 µM. That is a double-digit micromolar value.
